## Yeast mating assay B: variants of the scFv Ab-14

Values reported by Li et al. 2023, doi:10.1038/s41467-023-39022-2 (FLAb copy).

The target is the same throughout: PDVDLGDISGINAS, from the HR2 region of SARS-CoV-2 spike.

Ab-14 is the parent antibody, in scFv form: VH, then the linker GGGGSGGGGSGGGGS, then VL. The heavy chain is unchanged in all variants.
VH: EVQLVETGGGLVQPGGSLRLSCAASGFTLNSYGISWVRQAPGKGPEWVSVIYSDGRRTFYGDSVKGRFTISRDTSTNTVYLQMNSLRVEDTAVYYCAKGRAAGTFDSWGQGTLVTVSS
VL: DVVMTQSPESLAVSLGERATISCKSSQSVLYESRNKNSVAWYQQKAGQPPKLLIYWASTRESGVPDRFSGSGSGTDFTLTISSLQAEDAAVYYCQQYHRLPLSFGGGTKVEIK

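The parent was found by panning a naive human phage display library on the peptide. This is the validation round: designs drawn from the data on random variants, tested in the same kind of assay. Several design methods are mixed in this list. AlphaSeq pools MATa yeast showing the antibodies with MATalpha yeast showing the peptide. After mating in shaken culture at 30 °C for 16 h, diploids were selected and their barcode pairs sequenced. Each replicate has its own calibration line, from reference interactions of the BCL2 family. Each pool was mated in six replicate cultures.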

The parent's light chain CDRs are KSSQSVLYESRNKNSVA, WASTRES, QQYHRLPLS; each variant's own CDRs replace them letter for letter. Scale: log10 of Kd in nM, estimated from mating counts; low values are strong binders. The mean shown is taken over the replicates in which the pair was detected. "not detected" means that the variant was in the library but no mating with the target was seen in any replicate; the authors take this as a sign of poor binding, and no number exists. Entries are sorted by rising average, undetected variants last. The authors' rule: three or more of the six replicates give a measured affinity, fewer mean a poor binder. Some sequences occur more than once in the pool; their replicates are pooled. The parent sequence was in this pool as ten entries: three were never detected, three once, and four in most replicates, with averages from 0.34 to 2.37. As a blank, each scFv also met three strains without target: over all light chain designs, 4% of these pairings were detected, typically at 2.64 and seldom below 1.59. Values of this round are not directly comparable with the first-round values of the same sequences.

| # | CDR-L1 | CDR-L2 | CDR-L3 | mean log10 Kd (nM) | detected |
|---|---|---|---|---|---|
| 1 | KLSQSVLYEARNKNSVA | NASTRES | QQYHRLPLS | -0.61 | 6/6 |
| 2 | KMSQSVLYESRNKNSVA | GASTRES | QQYHRLPLQ | -0.46 | 6/6 |
| 3 | KLSQSVLYESRNKNSVA | NASTREE | QQYHRLPLS | -0.42 | 6/6 |
| 4 | KLRQSFLYESRNKNSVA | SASTRES | QQYHRLPLS | -0.34 | 6/6 |
| 5 | KLEQSVLYESRNKNSVA | NASTREV | QQYHRLPLS | -0.34 | 6/6 |
| 6 | KLSQSVLYESRMKNSVA | NASTRYS | QQYHRLPLS | -0.32 | 6/6 |
| 7 | KLDPSDLGESRNKNAVA | QASQREI | QQYHRLPLS | -0.29 | 6/6 |
| 8 | TISDVMGHLTRAHNNVA | DMDTRGE | QQYNRLPLS | -0.28 | 6/6 |
| 9 | KQSQEVLYSSRNKNSVA | DASTRES | QQYHRLPLS | -0.24 | 6/6 |
| 10 | QLGAVQDMTSKNKNSVA | EQSTREN | QQYHRLPLS | -0.21 | 6/6 |
| 11 | KLSQSWLYESRNKNSVA | EASTRLS | QQYHRLPLS | -0.08 | 6/6 |
| 12 | KFSQSALYEERMKNSVA | DASQRLS | QQYHRLPLS | -0.08 | 6/6 |
| 13 | HLGGLMTWEEKARNSVA | QQETRAE | QQYHRLPLS | -0.07 | 6/6 |
| 14 | KLSMITGHMQMAKNNVA | EMVTREN | QQYNRLPLS | -0.03 | 6/6 |
| 15 | KLRQSMSYEDRNKNSVA | NASQRCS | QQYHRLPLS | 0.01 | 6/6 |
| 16 | KVSQSVLYEGRNKNSVA | HASTRED | QQYHRLPLS | 0.01 | 6/6 |
| 17 | KVSQSHLYESRNKNAVA | GASTRES | QQYHRLPLS | 0.02 | 6/6 |
| 18 | HQSQSVLYESRNKNSVA | NGSTREV | QQYHRLPLS | 0.05 | 6/6 |
| 19 | KMSQSVLQESRNKNSVA | DASTRES | QQYHRLPLS | 0.10 | 6/6 |
| 20 | KFMQSVLYESRNLNNVA | HGSTRSS | QQYHRLPLS | 0.10 | 6/6 |
| 21 | FLMQSWDYESRNKNSVA | NASTRMS | QQYHRLPLS | 0.10 | 6/6 |
| 22 | ALSQSMDMTSRNVNSVA | DLTTREN | QQYHRLPLS | 0.12 | 6/6 |
| 23 | KLSGSDLYEWRNCNNVA | NASQREV | QQYHRLPLS | 0.16 | 6/6 |
| 24 | TISQVMNTLTRNTNNVA | DLSNRED | QQYFRLPLS | 0.17 | 6/6 |
| 25 | KLGQMTAIESQNLNSVA | QMDTRES | QQYHRLPLS | 0.19 | 6/6 |
| 26 | KIGATLNTLMHQKNNVA | DLVMRES | QQYHRLPLS | 0.23 | 6/6 |
| 27 | HVHMEMAIWKEISNNIA | DAQNRIA | QQYFRLPLG | 0.29 | 6/6 |
| 28 | KSSPSDLYESVNKNSVA | HASTRES | QQYHRLPLS | 0.29 | 6/6 |
| 29 | KFSDSVLLEDRTKNSVA | NASTRES | QQYHRLPLS | 0.36 | 6/6 |
| 30 | SLTIYQDENGLQHQSIA | GAGLRML | QQYHRLPLT | 0.41 | 6/6 |
| 31 | TLVGNIQGGGWAKKNVA | DEVMRVN | QQYYRLPLS | 0.42 | 6/6 |
| 32 | KFEQLDGQEDRNKNSVA | NASQRED | QQYHRLPLS | 0.53 | 6/6 |
| 33 | KLQMSNWYESRNKNSVA | DASVRES | QQYHRLPLS | 0.54 | 6/6 |
| 34 | KLEQSVLYESRNKNSVA | NASTRLS | QQYHRLPLS | 0.55 | 6/6 |
| 35 | KSSQSVLFESRNKNSVA | NASTRES | QQYHRLPLS | 0.58 | 12/12 |
| 36 | KISQSVLGESRNKNSVA | WASTRES | QQYHRLPLS | 0.59 | 6/6 |
| 37 | TIGQSTLMESSNRNNVA | QMSTREK | QQYDRLPLS | 0.62 | 6/6 |
| 38 | KLSQWQLGESRNKNSVA | SASTRCS | QQYHRLPLS | 0.77 | 6/6 |
| 39 | HMSAVTMLGMRQRNSVA | QMTTREN | QQYDRLPLA | 0.79 | 6/6 |
| 40 | KSSWSMLYESGNKNSVA | HASTRED | QQYHRLPLS | 0.83 | 5/6 |
| 41 | NLQNIGMENSVWKNAIA | DVNIKES | QQYFRLPLL | 0.87 | 6/6 |
| 42 | NLSDGEMYENATRSHIA | DTKMRDF | QQYNRLPLI | 0.87 | 6/6 |
| 43 | KLSQQDWYESRNCNSVA | QASTREQ | QQYHRLPLS | 0.92 | 6/6 |
| 44 | KIGMTLNLLYEKKNNVA | DLVMREN | QQYHRLPLS | 0.93 | 6/6 |
| 45 | KVSEFMRGLMKMKDSIA | DNDTRNS | QQYDRLPLS | 1.01 | 6/6 |
| 46 | KISQMYRYEQQNSSSIA | EANTREQ | QSYHRLPLS | 1.11 | 6/6 |
| 47 | KLSQSVNGQSRNKNSVA | HASTREQ | QDYHRLPLS | 1.22 | 6/6 |
| 48 | IISQSMLYETATHNSIA | QTSTREE | QQYHHLPLI | 1.35 | 6/6 |
| 49 | RIQMGDLEGRTAWNNIA | NGEEIYR | QQYVRLPLY | 1.37 | 5/6 |
| 50 | KFSQSVLYEERMKNSVA | DASQRLS | QQYHRLPLS | 1.77 | 4/6 |
| 51 | QLRDAIWADGMNKQSIA | ANEVSKD | QQYNRLPLS | 1.78 | 6/6 |
| 52 | KISFQYRFEQLSKNNIA | EVVTRLK | QQYHRLPLS | 1.78 | 6/6 |
| 53 | MISQLYNMGTFAINSVA | QASERSN | QQYDRLPLM | 1.80 | 6/6 |
| 54 | KSSQSVLYESRWKNSVA | HASTRES | QQYHRLPLS | 1.91 | 6/6 |
| 55 | HMSMLTLQGMRHMNSVA | QMTTRVN | QQYDRLPLV | 2.16 | 4/6 |
| 56 | KSSQSVWAESRNKNSVA | WASTRES | QQYCRLPCS | 2.32 | 6/6 |
| 57 | KVSQSVSYESFNKNSVA | WASTRES | QQYHRLPLS | 2.80 | 1/6 |
| 58 | KISQMYRYEQQNSSSIA | EVSTRLN | QSYHRLPLS | 2.92 | 3/6 |
| 59 | HFAKNLTSLASSKQNVA | NASTVMV | QYYNRLPLS | 3.22 | 1/6 |
| 60 | HISQMVMYGSCNKNNVA | QVSIREE | QQYHRLPLS | not detected | 0/6 |
| 61 | KSSQSVLYEGRNKNSVA | WASTRWS | QQYHRLPLE | not detected | 0/6 |
| 62 | TVKMELEMFAQDKHSVA | EAVERAS | QQYHRLPLG | not detected | 0/6 |
| 63 | KSSQSVLYESRNKNSVA | WASTRES | QQYHRLPLK | not detected | 0/6 |
| 64 | KLSQSVLYESRNKNSVA | WASTRES | QQYHRLVLS | not detected | 0/6 |
| 65 | KVSQSVLYESRNKNSVA | WASTREM | QQPHRLALS | not detected | 0/6 |
| 66 | KSSQSVLYYSRNKNSNA | WASTRPS | QQYHRLPLS | not detected | 0/6 |

The opening 9 entries, copied out:

{"CDR-L1": "KLSQSVLYEARNKNSVA", "CDR-L2": "NASTRES", "CDR-L3": "QQYHRLPLS", "mean log10 Kd (nM)": "-0.61", "detected": "6/6"}
{"CDR-L1": "KMSQSVLYESRNKNSVA", "CDR-L2": "GASTRES", "CDR-L3": "QQYHRLPLQ", "mean log10 Kd (nM)": "-0.46", "detected": "6/6"}
{"CDR-L1": "KLSQSVLYESRNKNSVA", "CDR-L2": "NASTREE", "CDR-L3": "QQYHRLPLS", "mean log10 Kd (nM)": "-0.42", "detected": "6/6"}
{"CDR-L1": "KLRQSFLYESRNKNSVA", "CDR-L2": "SASTRES", "CDR-L3": "QQYHRLPLS", "mean log10 Kd (nM)": "-0.34", "detected": "6/6"}
{"CDR-L1": "KLEQSVLYESRNKNSVA", "CDR-L2": "NASTREV", "CDR-L3": "QQYHRLPLS", "mean log10 Kd (nM)": "-0.34", "detected": "6/6"}
{"CDR-L1": "KLSQSVLYESRMKNSVA", "CDR-L2": "NASTRYS", "CDR-L3": "QQYHRLPLS", "mean log10 Kd (nM)": "-0.32", "detected": "6/6"}
{"CDR-L1": "KLDPSDLGESRNKNAVA", "CDR-L2": "QASQREI", "CDR-L3": "QQYHRLPLS", "mean log10 Kd (nM)": "-0.29", "detected": "6/6"}
{"CDR-L1": "TISDVMGHLTRAHNNVA", "CDR-L2": "DMDTRGE", "CDR-L3": "QQYNRLPLS", "mean log10 Kd (nM)": "-0.28", "detected": "6/6"}
{"CDR-L1": "KQSQEVLYSSRNKNSVA", "CDR-L2": "DASTRES", "CDR-L3": "QQYHRLPLS", "mean log10 Kd (nM)": "-0.24", "detected": "6/6"}